Laboratory results as given in patent publication US11433053B2, “LSD1 inhibitor and preparation method and application thereof” (CSPC ZHONGQI PHARMACEUTICAL TECHNOLOGY (SHIJIAZHUANG) CO., …, priority 2017, dated 2022).

Tests used:
human LSD1 = human LSD1 (Homo sapiens (Human), UniProt O60341); assay: Evaluation of enzyme activity: LSD1 fluorescence coupling enzyme assay (HRP/Amplex Red); conditions: human LSD1, histone H3(1-21)K4me2 peptide 10 μM, 30 min pre-incubation
Method: The purpose of this test is to test the in vitro inhibitory activities of the compounds against LSD1. The enzyme used in this experiment was human LSD1, and the standard substrate was histone H3(1-21)K4me2 peptide (10 μM). HCI-2509 (SP2509) was used as reference compound, and the fluorescence coupling enzyme assay was employed. The production of FAD-dependent H2O2 as a result of demethylase activity of LSD1 was measured by coupling with HRP and Amplex Red. Compounds as well as control compound HCl-2509 were tested in 10-dose IC50 mode with a 3-fold serial dilution in duplicate starting at 10 μm. All compounds were pre-incubated 30 mins with enzyme before added substrate to start reaction. Fluorescence measurement: Ex/Em=535/590 by EnVision.
The test compound's inhibitory activities against LSD11 was classified as: + for IC50≤50 nM; ++ for IC50>50 nM and ≤100 nM; +++ for IC50>100 nM and ≤500 nM, and the results are shown in Table 1.

H1417 cells = assay: Cell proliferation inhibitory activity on H1417 cells (CellTiter-Glo, 10 days)
Method: Experimental purposes: To test the proliferation inhibitory activities of the test compounds on H1417 cells.
Experimental materials: RPMI 1640 medium, fetal bovine serum, Promega CellTiter-Glo reagent. The H1417 cell line purchased from ATCC. Envision Multi-Label Analyzer (PerkinElmer).
Experimental method: H1417 cells were seeded in a black 384-well plate, 1000 cells per well in […] of cell suspension. The test compounds were diluted 3-fold with Epmotion to the 10th concentration i.e, the compounds were diluted from 10 mmol to […], and a double duplicate well experiment was set. 198 μL medium was added to the middle plate, according to the corresponding position, 2 μL gradient diluted compounds were added to the middle plate. The mixture was mixed evenly and transferred 20 μL per well to the cell plates. The cell plates were incubated in a carbon dioxide incubator for 10 days. 25 μL of Promega CellTiter-Glo reagent per well was added to the cell plate and the mixture was incubated for 10 minutes at room temperature to stabilize the luminescence signal. Readings were performed by PerkinElmer Envision multi-label analyzer.
Data analysis: The original data was converted to the inhibition rate by the equation (Max-Ratio)/(Max-Min)*100%, and the value of IC50 can be obtained by curve fitting with four parameters. (Model 205 in XLFIT5, iDBS) […]

In the case of `N#Cc1ccc(-c2cc(C3(CN[C@H]4C[C@@H]4c4ccccc4)CC3)no2)cc1`, the IC50 (human LSD1) is reported as under 50 nM, the IC50 (H1417 cells; 10 days incubation) is reported as under 100 nM and the “Maximum inhibition percentage (%)” value (H1417 cells; highest percentage inhibition of cell viability) is reported as “C (70%>C≥50%)”.
